Tests used:
adenosine deaminase = conditions: cited from earlier work
neutrophils = conditions: 0.1 mg/kg per day over 7 days; cutaneous T cell lymphoma; cited from earlier work
[1] = tested on: total circulating peripheral blood granulocytes; assay: Effect of 2-CdA on total circulating peripheral blood granulocytes in a patient with CML (Example 2); assay type: in vivo, human; conditions: second course, day 17
Method: Each course was repeated every 28 days until the maximum hematological remission response of the treatment was achieved. The median age of the patients was 60 years, with a range of 52 to 75 years. There were 3 males and 2 females. A median of 2 courses of treatment was administered, with a range of 1 to 4 courses.

SMILES: Nc1nc(Cl)nc2c1ncn2[C@H]1C[C@H](O)[C@@H](CO)O1 [2-CdA, 2-chloro-2'-deoxyadenosine]
- resistance to adenosine deaminase (adenosine deaminase): resistant to adenosine deaminase
- sensitivity of neutrophils relative to monocytes and lymphocytes (neutrophils): more resistant to 2-CdA than their monocytes and lymphocytes
- decrease relative to the granulocyte count at day zero [1]: over 98%

Source: patent publication US5401724A, “Therapeutic treatment of chronic myelogenous leukemia by administration of 2-chloro-2'-deoxy adenosine” (priority 1994, dated 1995)
